Experimental data from ChEMBL document CHEMBL1123653 (J Med Chem, 1987).
pKi: −log10 of the molar value.

By UniProt entry, the sequences of proteins in these tests, tags left out. Where a name states a change or a piece, a line headed by the entry shows the natural chain unless it says otherwise.
UniProt P30994: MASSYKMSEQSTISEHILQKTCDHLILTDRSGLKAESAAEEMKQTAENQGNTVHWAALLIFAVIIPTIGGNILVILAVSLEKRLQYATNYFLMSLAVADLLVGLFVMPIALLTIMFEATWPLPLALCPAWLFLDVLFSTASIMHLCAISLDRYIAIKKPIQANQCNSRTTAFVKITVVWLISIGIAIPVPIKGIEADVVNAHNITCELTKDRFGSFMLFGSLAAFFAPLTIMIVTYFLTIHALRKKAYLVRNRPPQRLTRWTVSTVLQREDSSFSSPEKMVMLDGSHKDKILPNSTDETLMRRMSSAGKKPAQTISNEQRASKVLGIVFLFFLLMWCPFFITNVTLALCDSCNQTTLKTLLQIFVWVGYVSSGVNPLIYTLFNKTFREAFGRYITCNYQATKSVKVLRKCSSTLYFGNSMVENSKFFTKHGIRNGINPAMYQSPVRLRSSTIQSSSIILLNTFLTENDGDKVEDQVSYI
UniProt P08909: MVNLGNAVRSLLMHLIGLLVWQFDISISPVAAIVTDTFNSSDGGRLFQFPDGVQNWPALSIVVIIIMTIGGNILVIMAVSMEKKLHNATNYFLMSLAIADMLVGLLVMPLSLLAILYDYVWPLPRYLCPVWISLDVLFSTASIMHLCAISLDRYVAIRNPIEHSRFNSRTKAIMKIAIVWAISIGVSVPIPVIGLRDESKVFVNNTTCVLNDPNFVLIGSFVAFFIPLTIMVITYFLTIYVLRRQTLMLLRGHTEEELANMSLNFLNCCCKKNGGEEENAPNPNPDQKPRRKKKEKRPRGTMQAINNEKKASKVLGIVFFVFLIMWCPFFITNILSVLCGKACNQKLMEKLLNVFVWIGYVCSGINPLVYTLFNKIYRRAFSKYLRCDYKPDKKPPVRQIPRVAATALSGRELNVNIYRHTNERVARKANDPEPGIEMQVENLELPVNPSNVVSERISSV
UniProt P14842: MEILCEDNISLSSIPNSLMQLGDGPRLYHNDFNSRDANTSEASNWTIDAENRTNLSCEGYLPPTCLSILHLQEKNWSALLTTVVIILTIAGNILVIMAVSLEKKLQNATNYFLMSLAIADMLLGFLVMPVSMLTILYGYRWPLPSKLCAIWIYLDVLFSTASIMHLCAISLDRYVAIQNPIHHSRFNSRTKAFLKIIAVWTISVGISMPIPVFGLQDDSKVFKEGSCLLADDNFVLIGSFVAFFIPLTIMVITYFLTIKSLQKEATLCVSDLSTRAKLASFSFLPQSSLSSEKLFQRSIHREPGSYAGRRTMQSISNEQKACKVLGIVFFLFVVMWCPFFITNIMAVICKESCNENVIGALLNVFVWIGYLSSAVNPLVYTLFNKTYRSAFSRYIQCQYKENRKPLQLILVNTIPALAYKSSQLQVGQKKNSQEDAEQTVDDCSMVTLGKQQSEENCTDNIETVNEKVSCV
UniProt P19327, whole entry: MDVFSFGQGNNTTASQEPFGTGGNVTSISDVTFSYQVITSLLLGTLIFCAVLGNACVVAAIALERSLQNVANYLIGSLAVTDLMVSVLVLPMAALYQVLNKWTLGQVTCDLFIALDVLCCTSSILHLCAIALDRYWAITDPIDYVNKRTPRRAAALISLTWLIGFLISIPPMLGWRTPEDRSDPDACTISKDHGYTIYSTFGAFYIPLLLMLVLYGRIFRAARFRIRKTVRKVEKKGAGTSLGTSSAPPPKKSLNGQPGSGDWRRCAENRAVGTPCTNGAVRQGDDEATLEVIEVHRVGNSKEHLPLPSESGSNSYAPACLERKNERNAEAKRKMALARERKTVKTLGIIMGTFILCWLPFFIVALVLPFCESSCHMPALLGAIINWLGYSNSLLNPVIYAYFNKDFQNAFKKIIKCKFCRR
UniProt P28564: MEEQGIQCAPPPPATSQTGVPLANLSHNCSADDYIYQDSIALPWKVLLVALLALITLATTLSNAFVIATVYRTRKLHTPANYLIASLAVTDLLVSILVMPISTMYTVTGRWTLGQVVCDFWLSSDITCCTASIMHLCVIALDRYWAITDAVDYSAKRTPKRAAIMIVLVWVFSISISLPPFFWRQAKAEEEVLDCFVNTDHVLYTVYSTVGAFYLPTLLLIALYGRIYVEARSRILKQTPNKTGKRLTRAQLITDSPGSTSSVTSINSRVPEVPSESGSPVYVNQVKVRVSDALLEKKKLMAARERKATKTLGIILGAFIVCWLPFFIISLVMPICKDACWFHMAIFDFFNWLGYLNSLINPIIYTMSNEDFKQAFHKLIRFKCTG
UniProt P30940: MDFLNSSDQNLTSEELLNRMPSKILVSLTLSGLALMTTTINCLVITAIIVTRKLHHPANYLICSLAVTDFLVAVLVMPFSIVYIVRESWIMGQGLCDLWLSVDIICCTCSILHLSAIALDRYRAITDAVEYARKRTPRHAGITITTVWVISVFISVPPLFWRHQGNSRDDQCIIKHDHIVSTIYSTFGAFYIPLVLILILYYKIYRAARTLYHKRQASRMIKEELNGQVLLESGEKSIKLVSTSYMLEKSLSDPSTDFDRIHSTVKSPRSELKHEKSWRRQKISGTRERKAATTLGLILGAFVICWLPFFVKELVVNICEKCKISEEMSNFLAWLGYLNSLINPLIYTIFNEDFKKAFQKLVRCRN
UniProt P28565: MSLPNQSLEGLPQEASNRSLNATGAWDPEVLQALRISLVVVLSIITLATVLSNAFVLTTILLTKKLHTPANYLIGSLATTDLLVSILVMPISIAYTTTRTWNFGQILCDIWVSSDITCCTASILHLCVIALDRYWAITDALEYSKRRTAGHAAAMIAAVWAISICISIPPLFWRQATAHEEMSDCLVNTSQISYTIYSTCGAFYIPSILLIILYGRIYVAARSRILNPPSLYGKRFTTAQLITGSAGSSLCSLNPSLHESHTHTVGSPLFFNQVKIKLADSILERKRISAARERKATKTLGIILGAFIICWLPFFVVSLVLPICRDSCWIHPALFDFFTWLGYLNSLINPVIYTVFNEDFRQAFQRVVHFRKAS

Experiments:
[1] = target: T1, Serotonin 2 (5-HT2) receptor (Rattus norvegicus, UniProt P30994+P08909+P14842); assay: Binding affinity to rat cortical membranes at 5-hydroxytryptamine 2 receptor binding site by using [3H]- DOB as a radioligand
[2] = target: T1, Serotonin 2 (5-HT2) receptor; assay: Binding affinity to rat cortical membranes at 5-hydroxytryptamine 2 receptor binding site by using [3H]- DOB as a radioligand.
[3] = target: T1, Serotonin 2 (5-HT2) receptor
[4] = target: T1, Serotonin 2 (5-HT2) receptor; remark: listed apart in the source
[5] = target: 5-hydroxytryptamine receptor 1A (Rattus norvegicus, UniProt P19327)
[6] = target: Serotonin 1 (5-HT1) receptor (Rattus norvegicus, UniProt P28564+P30940+P19327+P28565)

In the case of `COc1ccc2[nH]cc(CCN)c2c1` [5-METHOXYTRYPTAMINE], the Ki [1] was 14 nM, the Ki [2] was 14 nM and the Ki [3] was 2570 nM. For the same molecule, the Ki [4] was 690 nM.
`COc1ccc2[nH]cc(CCN(C)C)c2c1` [MEBUFOTENIN] was tested, and the Ki [3] was 390 nM and the Ki [4] was 1200 nM.
Molecule `COc1ccc2[nH]cc(C3=CCNCC3)c2c1` [RU-24969] has a pKi [5] of 8.30 and a Ki [6] of 2 nM.
`NCCc1c[nH]c2ccc(O)cc12` [SEROTONIN] was tested, and the pKi [5] was 8.52.
In the case of `O=C(CCCN1CCC2(CC1)C(=O)NCN2c1ccccc1)c1ccc(F)cc1` [SPIPERONE], the Ki [1] was 1 nM and the Ki [4] was 2 nM.
